Broadly, the Ki is the equilibrium dissociation constant of an inhibitor or competing ligand from its target. Read a low Ki as tighter binding. What is called Kd is a measure of binding affinity in units of concentration. Higher therefore signals a looser complex.

Amino acid sequences for entries named in this document (tags omitted).
UniProt P30536, whole entry: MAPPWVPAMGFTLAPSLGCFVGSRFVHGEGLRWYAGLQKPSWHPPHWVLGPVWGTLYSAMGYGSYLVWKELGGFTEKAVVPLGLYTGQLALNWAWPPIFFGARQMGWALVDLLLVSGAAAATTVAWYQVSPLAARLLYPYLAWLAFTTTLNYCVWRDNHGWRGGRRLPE

Test [1] has as its target T1, human TSPO (Homo sapiens, UniProt P30536).
T1 construct: aliquots of U87MG cell membranes (20 μg of proteins) were incubated with [^3H]PK 11195 (1.5 nM); endogenous in cells; host or cells: U87MG human glioblastoma cell membranes
In words: Equilibrium [3H]PK11195 radioligand binding assay in U87MG cell membranes. How it is done: Equilibrium radioligand binding assays were performed essentially as previously described. Briefly, aliquots of U87MG cell membranes (20 μg of proteins) were incubated with [^3H]PK 11195 (1.5 nM) in the presence (non-specific binding) or in the absence (total binding) of unlabelled PK 11195 (1 μM), in the final volume of 500 μl of assay buffer for 120 min at 0°C. Samples were rapidly filtered under vacuum through GF/C glass fiber filters. Radioactivity was measured by liquid scintillation counter (TopCount; PerkinElmer Life and Analytical Sciences; 65 % counting efficiency). In U87MG cell membranes, [^3H]PK11195 maximum number of binding sites (Bmax) and affinity (Kd) were determined in previous experiments by Scatchard analysis of saturation binding data.

The target in test [2] is T1, human TSPO. Put plainly: TSPO association/dissociation and competition kinetics with [3H]PK11195. The test is classed as binding. How it is done: Association kinetics for [^3H]PK11195 were determined incubating U87MG cell membranes (20 μg protein) with 1.5 nM radioligand at various time points up to a total of 3 h. Dissociation kinetics were determined by pre-equilibrating membranes and [^3H]PK11195 for 120 min and the adding a saturating concentration of cold PK11195 (1 μM).
Association and dissociation rate constants for [^3H] PK11195 binding were determined by global analysis of the association and dissociation binding curves according to mono-exponential association and decay curves. From this analysis an estimate of the dissociation (koff) and observed association (kobs) rates for ligand binding was generated; the association rate constant (kon) was determined according to the following relationship kobs = [A] kon + koff; ligand-receptor half-life was calculated as 0.693/koff.
For competition kinetics, the [^3H] PK11195 curves in the presence and absence of EB54 or EB148, were fitted using the equations in Dowling and Charlton.

Consider `CCC(C)N(C)C(=O)c1cc2ccccc2c(-c2ccccc2Cl)n1` (centres unmarked) [PK11195, reference compound], for which affinity at human TSPO [1] was put at a Ki of 2.88 ± 0.13 nM. On human TSPO [2], this compound showed an equilibrium dissociation constant (Kd) of 2.89 nM.

Values taken from publication PMC4884960, “Long lasting MDM2/Translocator protein modulator: a new strategy for irreversible apoptosis of human glioblastoma cells” (Oncotarget, 2016).
